Results published in patent US12637513B2, “Method of treating cancer by administering an inhibitor of erythropoietin receptor activity comprising either erythropoietin receptor or erythropoietin protein” (ImmunEdge, Inc., priority 2022, dated 2026).

T1: EPO/EPOR interaction (EPOR-CD131-Fc and EPO) (Homo sapiens, UniProt P19235+P32927)
T1 construct: Chimeric Fc fusion proteins of the extracellular domains of human EPOR and human CD131; purchased Sino Biological CT010-H02H
T1 sequence (P19235 25-250 limits assumed): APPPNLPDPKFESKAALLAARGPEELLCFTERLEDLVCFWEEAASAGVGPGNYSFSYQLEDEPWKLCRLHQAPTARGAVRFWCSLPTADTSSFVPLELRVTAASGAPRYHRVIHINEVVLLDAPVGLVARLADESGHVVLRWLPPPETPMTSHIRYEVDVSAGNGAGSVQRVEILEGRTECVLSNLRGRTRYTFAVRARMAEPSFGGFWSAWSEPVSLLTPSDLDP
T1 sequence (P32927 17-443 limits assumed): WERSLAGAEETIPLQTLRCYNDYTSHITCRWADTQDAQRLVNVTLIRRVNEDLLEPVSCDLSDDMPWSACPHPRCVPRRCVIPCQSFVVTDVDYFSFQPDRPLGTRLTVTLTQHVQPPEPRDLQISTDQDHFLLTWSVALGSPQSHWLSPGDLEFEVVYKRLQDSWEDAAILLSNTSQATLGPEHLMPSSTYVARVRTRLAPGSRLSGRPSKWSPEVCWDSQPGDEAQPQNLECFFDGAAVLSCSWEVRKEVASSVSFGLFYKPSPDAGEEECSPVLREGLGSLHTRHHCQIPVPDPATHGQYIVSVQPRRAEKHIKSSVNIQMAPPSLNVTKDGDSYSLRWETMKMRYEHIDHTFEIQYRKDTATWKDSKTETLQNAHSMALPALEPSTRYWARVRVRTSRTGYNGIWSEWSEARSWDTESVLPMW

B1: EPORab - M80: hybridoma antibody clone, VH/VK in Table 10 (antibody, V domains shown)
VH: QVQLVESGGGLVKPGGSLRLSCAASGFTFSDSYMSWIRQAPGKGLEWVSYISNSGSYMYYADSVKGRFTISRDNAKNSLYLQMNNLRAEDTAVYYCARDKLGIGDYWGQGTLVTVSS
VL: DIVMTQSPLSLPVTPGEPASISCRSSQSLLHSNGYNYLDWYLQKPGQSPQLLIYLGSNRASGVPDRFSGSGSGTDSTLKISRVEAEDVGVYYCMQVLQIPLTFGGGTKVEIR
B2: EPORab - M26: hybridoma antibody clone, VH/VK in Table 10 (antibody, V domains shown)
VH: QVQLVQSGVEVKKPGASVKVSCKASGYAFSNNDISWVRQAPGQGLEWMAWITTSNGNTNYAPKLQGRVTMTTDTSTSTAYMELRSLKSDDTAVYYCARGGRTGYFDYWGQGTLVTVSS
VL: B1 VL

Molecular target: T1, EPO/EPOR interaction (EPOR-CD131-Fc and EPO)
Test: Octet blocking of the EPO/EPOR interaction by hybridoma supernatants
Format: binding
Details: EPO 10 nM

| Molecule | blocking of the EPO/EPOR interaction |
| --- | --- |
| B1 | did not block |
| B2 | partial blocking |
